Among the data in patent US20170313665A1, “HYDROXYALKYL-SUBSTITUTED PHENYLTRIAZOLE DERIVATIVES AND USES THEREOF” (BAYER PHARMA AKTIENGESELLSCHAFT, priority 2014, published 2017) are IC50 values, retold here.

Protein sequences, listed by entry. Tags and fused reporters are not part of them.
UniProt P37288, whole entry: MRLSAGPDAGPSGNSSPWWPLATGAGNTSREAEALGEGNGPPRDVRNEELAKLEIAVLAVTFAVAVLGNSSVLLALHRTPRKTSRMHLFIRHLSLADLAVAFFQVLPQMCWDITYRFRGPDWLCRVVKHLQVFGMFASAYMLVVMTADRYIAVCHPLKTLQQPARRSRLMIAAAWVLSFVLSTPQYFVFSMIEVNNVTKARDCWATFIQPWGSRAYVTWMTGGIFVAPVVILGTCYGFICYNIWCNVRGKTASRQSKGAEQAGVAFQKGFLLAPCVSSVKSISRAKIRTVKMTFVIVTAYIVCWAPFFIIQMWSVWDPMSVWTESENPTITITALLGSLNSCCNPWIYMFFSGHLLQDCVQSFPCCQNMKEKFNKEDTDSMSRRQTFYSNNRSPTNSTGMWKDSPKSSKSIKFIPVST
UniProt P30518, whole entry: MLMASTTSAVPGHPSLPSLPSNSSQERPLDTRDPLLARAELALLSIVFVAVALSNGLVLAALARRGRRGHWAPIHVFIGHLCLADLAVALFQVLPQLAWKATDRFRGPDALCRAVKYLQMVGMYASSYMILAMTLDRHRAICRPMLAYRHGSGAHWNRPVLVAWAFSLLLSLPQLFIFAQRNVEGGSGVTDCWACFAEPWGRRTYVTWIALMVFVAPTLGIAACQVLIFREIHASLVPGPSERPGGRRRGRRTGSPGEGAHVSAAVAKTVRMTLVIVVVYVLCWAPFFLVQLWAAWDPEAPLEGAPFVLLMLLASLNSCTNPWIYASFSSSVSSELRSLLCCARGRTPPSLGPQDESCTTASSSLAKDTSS

Test [1] addresses human V1a receptor (Homo sapiens, UniProt P37288). Briefly: Cellular in vitro assay for vasopressin receptor activity, V1a receptor cell line (aequorin luminescence). In kind it is cell-based. The following applies: read-out: IC50 hV1a; CHO cell line transfected with human V1a receptor; [Arg8]-vasopressin at EC50.
The target in test [2] is human V2 receptor (Homo sapiens, UniProt P30518). Nature of the test: Cellular in vitro assay for vasopressin receptor activity, V2 receptor cell line (CRE-luciferase). The following applies: read-out: IC50 hV2; CHO cell line transfected with human V2 receptor; [Arg8]-vasopressin at EC50. In kind it is cell-based.

What is called IC50 is the concentration at which inhibition is half-maximal. Take `COC(=O)Cn1nc(Cn2nc(-c3ccc(Cl)cc3)n(C[C@H](O)C(F)(F)F)c2=O)nc1-c1ccccc1Cl`: the IC50 came to 1.3 nM in test [1] and 6.7 nM in test [2].
